Assay results from PubChem BioAssay AID777 (Sanford-Burnham Center for Chemical Genomics, 2007).
Only a part is listed here, and it is no random draw. Activity calls are given as the source filed them.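 The calls were made as follows: active = blocking of liver enzyme CYP2C9 beyond about 50% at 5 µM (limit read from the data); inactive = the rest.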

Sequences of proteins named here, by UniProt entry; tags and fusion partners are left off.
UniProt P11712, whole entry: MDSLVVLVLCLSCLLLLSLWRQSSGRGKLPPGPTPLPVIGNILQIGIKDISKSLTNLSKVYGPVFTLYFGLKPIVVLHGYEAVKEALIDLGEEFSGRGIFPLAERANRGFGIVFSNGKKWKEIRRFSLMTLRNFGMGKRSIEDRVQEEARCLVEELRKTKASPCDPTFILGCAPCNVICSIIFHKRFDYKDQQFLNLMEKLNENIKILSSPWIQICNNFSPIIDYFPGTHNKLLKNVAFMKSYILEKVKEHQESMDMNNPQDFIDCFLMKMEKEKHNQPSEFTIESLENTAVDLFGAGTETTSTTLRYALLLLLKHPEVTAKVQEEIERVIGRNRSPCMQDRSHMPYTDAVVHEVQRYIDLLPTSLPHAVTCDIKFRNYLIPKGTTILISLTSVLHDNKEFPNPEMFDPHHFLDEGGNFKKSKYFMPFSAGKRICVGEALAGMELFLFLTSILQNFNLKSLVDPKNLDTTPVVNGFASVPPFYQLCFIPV

Target: Cytochrome P450 2C9 (Homo sapiens) (UniProt P11712)
Assay: blockers of cytochrome P450 2C9 activity – biochemical, luminescence, ADME assay, primary screen (AID 777)
Details: CYP2C9 Supersomes, luciferin-H conversion, at 5 µM, stronger effect = higher value

Compound	inhibition
Cc1cc(C)cc(OP(C)(=O)Nc2ccc(C)cc2C)c1 (stereo not given)	inactive: 36.6%
Cc1ccc(C)c(NP(C)(=O)Oc2ccccc2)c1 (stereo not given)	inactive: -8.8%
Cc1cc(C)cc(OP(C)(=O)Nc2ccccn2)c1 (stereo not given)	inactive: 9%
Cc1nc2ccc3ccccc3c2s1.O=[N+]([O-])c1cc([N+](=O)[O-])c(O)c([N+](=O)[O-])c1	inactive: 14.6%
CP(=O)(NC(=O)Nc1ccccc1)Oc1ccccc1 (stereo not given)	inactive: -17.7%
CP(=O)(Nc1ccccn1)Oc1ccc(Cl)cc1 (stereo not given)	inactive: 1.3%
CCOP(C)(=S)SCC(=O)NC(C)C(=O)O (stereo not given)	active: 54.7%
CP(=S)(Nn1cnnc1)Oc1ccccc1 (stereo not given)	inactive: 29.1%
COc1ccc(OP(C)(=O)Nc2cccc(F)c2)cc1 (stereo not given)	active: 54.9%
Cc1ccc(NP(C)(=O)Oc2ccccc2)c(C)c1 (stereo not given)	inactive: 28.1%
COc1ccccc1OP(C)(=O)Nc1ccc(C)cc1 (stereo not given)	inactive: 11.5%
COc1ccc(OP(C)(=O)Nc2ccccn2)cc1 (stereo not given)	inactive: 1.2%
CN(C)CCOC(=O)C(O)(c1ccccc1)C1CCCC1 (stereo not given)	inactive: 12.2%
COc1ccccc1OP(C)(=O)Nc1ccc(C)cc1C (stereo not given)	inactive: -3.7%
CP(=O)(Nc1ccccn1)Oc1ccccc1 (stereo not given)	inactive: -6.8%
CCc1ccc(OP(C)(=O)O)cc1	inactive: 1.7%
Cc1c(NP(C)(=O)Oc2ccc(C(C)C)cc2)c(=O)n(-c2ccccc2)n1C (stereo not given)	inactive: 28%
COc1ccccc1OP(C)(=O)Nc1ccc(C)c(C)c1 (stereo not given)	inactive: -8%
Cc1nc2ccc3ccccc3c2o1.O=[N+]([O-])c1cc([N+](=O)[O-])c(O)c([N+](=O)[O-])c1	inactive: 15.5%
CP(=O)(OC12CC3CC(CC(C3)C1)C2)OC12CC3CC(CC(C3)C1)C2	inactive: -6.5%
COc1ccccc1OP(C)(=O)Nc1c(C)n(C)n(-c2ccccc2)c1=O (stereo not given)	inactive: -1%
CP(=O)(Oc1ccccc1)N1CCOC1=O (stereo not given)	inactive: -11.8%
CCN(CC)CC(O)COC(=O)C(O)(c1ccccc1)C1CCCCC1 (stereo not given)	inactive: 3.6%
CC(C)(C)c1ccc(OP(C)(=O)O)cc1	inactive: 0.2%
CCOP(C)(=S)SCC(=O)NC(C)(CC)C(=O)O (stereo not given)	inactive: 49.6%
Cc1ccccc1NP(C)(=O)Nc1ccccc1C	inactive: 23.3%
CN(C)CCOC(=O)C(O)(c1ccccc1)C1CCCCC1 (stereo not given)	inactive: 8.2%
COc1ccc(OP(C)(=O)Nc2cccc(Br)c2)cc1 (stereo not given)	inactive: 27.6%
CP(=O)(Nc1ccccc1)Oc1ccc(F)cc1 (stereo not given)	inactive: -19%
CP(=O)(Nc1ccccc1F)Oc1ccccc1 (stereo not given)	inactive: 6.8%
